Test results: PMC7611940, “A Conformation Selective Mode of Inhibiting SRC Improves Drug Efficacy and Tolerability” (Cancer Research, 2021)

Amino acid sequences for entries named in this document (tags omitted). A change or cut given only in a name is not applied to a line headed by its entry.
UniProt O75914, whole entry: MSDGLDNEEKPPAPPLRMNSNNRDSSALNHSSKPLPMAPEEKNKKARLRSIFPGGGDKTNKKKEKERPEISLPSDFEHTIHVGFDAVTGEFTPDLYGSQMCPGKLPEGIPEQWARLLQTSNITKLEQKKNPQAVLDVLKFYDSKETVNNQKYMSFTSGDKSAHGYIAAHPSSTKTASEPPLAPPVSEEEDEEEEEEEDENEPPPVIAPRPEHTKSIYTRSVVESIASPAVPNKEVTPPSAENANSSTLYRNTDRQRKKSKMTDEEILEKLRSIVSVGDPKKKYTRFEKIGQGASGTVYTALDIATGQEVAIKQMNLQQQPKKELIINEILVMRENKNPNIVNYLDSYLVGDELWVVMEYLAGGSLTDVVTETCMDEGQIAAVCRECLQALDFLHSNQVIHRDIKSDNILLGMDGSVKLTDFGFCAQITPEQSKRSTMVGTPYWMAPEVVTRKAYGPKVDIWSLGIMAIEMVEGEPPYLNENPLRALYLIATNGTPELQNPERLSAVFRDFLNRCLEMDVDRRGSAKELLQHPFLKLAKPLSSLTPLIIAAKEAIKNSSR
UniProt P51955: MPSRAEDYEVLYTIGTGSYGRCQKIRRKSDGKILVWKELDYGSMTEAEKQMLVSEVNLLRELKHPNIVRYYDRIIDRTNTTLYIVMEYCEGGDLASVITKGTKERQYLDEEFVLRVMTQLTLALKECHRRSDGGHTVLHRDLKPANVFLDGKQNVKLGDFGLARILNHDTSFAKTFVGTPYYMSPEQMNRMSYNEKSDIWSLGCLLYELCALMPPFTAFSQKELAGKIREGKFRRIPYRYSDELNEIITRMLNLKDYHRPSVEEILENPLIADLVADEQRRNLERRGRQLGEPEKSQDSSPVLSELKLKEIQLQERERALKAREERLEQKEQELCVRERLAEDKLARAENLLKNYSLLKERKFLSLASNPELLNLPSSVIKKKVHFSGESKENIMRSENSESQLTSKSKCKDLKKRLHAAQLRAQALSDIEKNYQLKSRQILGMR
UniProt Q9UM73: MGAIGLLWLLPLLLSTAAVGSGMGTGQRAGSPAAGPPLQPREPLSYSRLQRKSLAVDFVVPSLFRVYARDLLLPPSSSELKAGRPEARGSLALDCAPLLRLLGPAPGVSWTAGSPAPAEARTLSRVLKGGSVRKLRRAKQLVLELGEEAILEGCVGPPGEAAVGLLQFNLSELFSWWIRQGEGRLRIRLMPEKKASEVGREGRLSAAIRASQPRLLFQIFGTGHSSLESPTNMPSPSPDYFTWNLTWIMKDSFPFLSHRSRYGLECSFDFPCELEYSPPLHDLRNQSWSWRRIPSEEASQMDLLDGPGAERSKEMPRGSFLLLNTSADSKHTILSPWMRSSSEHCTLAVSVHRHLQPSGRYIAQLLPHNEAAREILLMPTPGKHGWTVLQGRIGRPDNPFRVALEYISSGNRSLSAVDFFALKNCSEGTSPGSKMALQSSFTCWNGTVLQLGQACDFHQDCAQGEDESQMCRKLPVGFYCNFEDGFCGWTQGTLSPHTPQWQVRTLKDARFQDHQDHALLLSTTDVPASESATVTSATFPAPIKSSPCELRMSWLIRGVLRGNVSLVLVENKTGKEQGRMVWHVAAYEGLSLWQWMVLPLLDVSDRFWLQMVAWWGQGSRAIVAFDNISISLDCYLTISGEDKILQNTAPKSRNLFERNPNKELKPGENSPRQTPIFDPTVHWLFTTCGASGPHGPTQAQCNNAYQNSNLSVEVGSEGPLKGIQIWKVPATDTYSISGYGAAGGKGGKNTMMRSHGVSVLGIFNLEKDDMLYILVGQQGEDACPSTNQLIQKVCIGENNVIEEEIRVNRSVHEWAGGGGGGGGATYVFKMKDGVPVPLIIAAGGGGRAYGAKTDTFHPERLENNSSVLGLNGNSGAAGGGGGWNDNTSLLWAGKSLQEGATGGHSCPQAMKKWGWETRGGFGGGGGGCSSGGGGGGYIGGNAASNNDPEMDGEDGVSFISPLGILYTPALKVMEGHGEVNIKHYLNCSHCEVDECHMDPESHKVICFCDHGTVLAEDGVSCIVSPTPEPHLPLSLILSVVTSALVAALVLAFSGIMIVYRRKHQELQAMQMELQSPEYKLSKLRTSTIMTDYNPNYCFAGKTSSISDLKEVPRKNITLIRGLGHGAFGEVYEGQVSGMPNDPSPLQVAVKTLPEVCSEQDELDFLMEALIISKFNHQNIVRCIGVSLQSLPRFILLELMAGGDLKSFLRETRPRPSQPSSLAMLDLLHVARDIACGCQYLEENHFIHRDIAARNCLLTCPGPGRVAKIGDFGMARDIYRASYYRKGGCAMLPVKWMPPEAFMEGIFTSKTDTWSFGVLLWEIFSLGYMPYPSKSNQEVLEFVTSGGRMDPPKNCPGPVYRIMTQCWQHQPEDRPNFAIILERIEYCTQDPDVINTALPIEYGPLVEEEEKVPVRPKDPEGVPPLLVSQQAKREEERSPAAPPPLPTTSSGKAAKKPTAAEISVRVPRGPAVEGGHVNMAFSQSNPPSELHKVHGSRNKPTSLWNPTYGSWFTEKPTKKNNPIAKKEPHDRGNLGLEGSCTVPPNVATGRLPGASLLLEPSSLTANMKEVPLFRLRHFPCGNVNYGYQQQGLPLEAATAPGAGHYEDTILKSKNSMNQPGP
UniProt P35916, whole entry: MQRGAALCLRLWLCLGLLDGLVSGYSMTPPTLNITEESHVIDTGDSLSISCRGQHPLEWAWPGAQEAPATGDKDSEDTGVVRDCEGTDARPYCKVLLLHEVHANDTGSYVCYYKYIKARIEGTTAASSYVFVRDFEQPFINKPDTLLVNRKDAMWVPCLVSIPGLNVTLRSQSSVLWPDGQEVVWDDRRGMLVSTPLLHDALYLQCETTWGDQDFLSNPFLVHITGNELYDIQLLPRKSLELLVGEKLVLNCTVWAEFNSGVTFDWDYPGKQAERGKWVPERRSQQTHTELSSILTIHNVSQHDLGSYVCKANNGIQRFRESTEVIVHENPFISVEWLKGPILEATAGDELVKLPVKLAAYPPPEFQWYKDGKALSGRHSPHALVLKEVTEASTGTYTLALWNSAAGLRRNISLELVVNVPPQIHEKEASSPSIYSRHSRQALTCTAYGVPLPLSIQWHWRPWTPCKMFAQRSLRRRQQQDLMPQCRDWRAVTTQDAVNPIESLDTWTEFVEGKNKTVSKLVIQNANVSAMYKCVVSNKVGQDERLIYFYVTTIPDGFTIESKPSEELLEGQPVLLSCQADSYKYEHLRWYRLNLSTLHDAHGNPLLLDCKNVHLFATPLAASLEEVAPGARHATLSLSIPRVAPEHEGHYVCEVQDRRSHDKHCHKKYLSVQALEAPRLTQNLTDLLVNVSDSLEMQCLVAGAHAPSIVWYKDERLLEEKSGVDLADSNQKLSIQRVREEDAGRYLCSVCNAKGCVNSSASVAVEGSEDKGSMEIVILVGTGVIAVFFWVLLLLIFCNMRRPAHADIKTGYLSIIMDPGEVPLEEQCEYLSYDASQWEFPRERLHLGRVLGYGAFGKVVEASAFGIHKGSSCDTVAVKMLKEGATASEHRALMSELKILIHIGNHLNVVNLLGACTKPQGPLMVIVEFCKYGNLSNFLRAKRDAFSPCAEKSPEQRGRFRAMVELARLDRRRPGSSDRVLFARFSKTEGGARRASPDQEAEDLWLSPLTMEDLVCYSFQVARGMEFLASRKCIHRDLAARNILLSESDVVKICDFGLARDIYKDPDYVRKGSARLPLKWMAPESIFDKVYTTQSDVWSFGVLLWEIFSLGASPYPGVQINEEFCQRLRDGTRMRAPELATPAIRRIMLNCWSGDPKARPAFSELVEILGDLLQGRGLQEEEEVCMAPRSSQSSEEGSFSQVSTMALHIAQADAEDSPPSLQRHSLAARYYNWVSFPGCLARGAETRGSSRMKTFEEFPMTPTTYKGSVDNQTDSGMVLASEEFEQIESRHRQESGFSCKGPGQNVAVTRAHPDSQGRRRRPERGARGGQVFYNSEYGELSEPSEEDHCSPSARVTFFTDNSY
UniProt O43293: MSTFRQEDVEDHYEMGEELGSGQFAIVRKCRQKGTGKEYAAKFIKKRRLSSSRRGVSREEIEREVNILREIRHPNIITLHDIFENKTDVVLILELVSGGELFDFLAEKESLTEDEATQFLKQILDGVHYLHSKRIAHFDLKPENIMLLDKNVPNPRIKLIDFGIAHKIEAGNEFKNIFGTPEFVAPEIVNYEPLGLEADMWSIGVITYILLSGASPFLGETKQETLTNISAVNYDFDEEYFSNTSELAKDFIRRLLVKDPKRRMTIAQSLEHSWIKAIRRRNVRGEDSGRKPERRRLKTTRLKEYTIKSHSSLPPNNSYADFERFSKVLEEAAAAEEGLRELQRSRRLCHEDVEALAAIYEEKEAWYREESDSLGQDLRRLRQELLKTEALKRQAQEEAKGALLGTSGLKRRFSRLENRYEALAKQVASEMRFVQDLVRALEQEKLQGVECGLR
UniProt Q02763: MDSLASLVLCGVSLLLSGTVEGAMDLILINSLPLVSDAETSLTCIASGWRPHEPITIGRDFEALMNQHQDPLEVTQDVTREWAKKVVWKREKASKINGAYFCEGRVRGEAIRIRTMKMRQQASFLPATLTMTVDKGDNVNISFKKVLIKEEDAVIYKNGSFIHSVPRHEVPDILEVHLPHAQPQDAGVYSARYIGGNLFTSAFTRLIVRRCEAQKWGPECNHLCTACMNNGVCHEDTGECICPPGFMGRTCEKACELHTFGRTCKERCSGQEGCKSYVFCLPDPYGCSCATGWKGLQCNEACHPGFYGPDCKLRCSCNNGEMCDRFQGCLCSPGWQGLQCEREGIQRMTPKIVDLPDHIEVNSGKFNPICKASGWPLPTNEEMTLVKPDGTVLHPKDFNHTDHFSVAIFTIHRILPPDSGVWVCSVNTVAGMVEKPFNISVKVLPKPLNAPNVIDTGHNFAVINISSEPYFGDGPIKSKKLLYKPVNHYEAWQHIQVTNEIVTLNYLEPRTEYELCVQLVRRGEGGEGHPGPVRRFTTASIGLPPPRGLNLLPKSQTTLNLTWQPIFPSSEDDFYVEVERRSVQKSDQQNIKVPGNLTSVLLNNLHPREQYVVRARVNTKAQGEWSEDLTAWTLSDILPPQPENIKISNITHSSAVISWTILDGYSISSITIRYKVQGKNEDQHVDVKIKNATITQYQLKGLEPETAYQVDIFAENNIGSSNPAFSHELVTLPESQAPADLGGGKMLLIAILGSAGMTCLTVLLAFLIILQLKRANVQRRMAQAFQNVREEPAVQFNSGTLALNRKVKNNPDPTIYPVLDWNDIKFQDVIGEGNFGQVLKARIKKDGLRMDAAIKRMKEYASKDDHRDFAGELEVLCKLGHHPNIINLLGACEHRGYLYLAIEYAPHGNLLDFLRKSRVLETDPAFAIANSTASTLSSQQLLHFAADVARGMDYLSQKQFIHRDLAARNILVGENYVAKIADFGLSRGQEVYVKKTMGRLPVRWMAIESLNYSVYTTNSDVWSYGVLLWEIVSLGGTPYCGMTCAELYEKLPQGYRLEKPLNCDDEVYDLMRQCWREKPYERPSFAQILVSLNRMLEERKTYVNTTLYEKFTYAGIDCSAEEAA
UniProt P07948: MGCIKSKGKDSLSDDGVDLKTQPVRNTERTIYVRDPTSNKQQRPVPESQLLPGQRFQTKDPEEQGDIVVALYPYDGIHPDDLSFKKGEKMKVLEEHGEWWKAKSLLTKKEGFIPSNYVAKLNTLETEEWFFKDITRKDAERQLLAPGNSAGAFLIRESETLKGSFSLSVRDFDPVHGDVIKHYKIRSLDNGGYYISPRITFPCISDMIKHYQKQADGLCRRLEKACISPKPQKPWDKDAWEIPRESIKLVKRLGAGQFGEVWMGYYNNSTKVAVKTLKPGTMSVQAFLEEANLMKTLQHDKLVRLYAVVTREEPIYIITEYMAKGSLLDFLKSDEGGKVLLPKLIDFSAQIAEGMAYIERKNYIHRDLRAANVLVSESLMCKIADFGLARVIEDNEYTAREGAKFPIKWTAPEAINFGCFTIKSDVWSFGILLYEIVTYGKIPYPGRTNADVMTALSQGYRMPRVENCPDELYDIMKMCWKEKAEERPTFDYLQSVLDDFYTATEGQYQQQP
UniProt O75716, whole entry: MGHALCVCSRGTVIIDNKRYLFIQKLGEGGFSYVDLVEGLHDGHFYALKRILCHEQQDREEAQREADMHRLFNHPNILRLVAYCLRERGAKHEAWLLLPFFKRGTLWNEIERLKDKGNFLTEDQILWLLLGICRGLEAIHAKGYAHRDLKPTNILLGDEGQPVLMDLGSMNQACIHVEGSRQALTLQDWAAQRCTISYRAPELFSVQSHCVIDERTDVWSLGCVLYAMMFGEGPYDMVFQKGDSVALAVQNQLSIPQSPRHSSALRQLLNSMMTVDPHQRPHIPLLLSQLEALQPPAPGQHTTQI

What was measured:
Assay in all cases: biochemical
Settings in all cases: read-out: % remaining activity
MEKK2 = molecular target: T1, MEKK2 (Homo sapiens, UniProt Q9Y2U5)
T1 construct: gene MAP3K2

FGFR1 = FGFR1 (Homo sapiens, UniProt P11362)
CK1g2 = molecular target: T2, CK1g2 (Homo sapiens, UniProt P78368)
T2 construct: gene CSNK1G2

TNK1 = TNK1 (Homo sapiens, UniProt Q13470)
PAK3 = PAK3 (Homo sapiens, UniProt O75914)
FES = FES (Homo sapiens, UniProt P07332)
PDGFRa = PDGFRa (Homo sapiens, UniProt P16234)
IKKe = molecular target: T3, IKKe (Homo sapiens, UniProt Q14164)
T3 construct: gene IKBKE

NEK2 = NEK2 (Homo sapiens, UniProt P51955)
AKT1 = AKT1 (Homo sapiens, UniProt P31749)
TBK1 = TBK1 (Homo sapiens, UniProt Q9UHD2)
MST4 = molecular target: T4, MST4 (Homo sapiens, UniProt Q9P289)
T4 construct: gene STK26

IR = molecular target: T5, IR (Homo sapiens, UniProt P06213)
T5 construct: gene INSR

IRAK1 = IRAK1 (Homo sapiens, UniProt P51617)
RIPK3 = RIPK3 (Homo sapiens, UniProt Q9Y572)
MEK2 = molecular target: T6, MEK2 (Homo sapiens, UniProt P36507)
T6 construct: gene MAP2K2

TRKA = molecular target: T7, TRKA (Homo sapiens, UniProt P04629)
T7 construct: gene NTRK1

ALK = ALK (Homo sapiens, UniProt Q9UM73)
NEK4 = NEK4 (Homo sapiens, UniProt P51957)
FLT4 = FLT4 (Homo sapiens, UniProt P35916)
CK2a2 = molecular target: T8, CK2a2 (Homo sapiens, UniProt P19784)
T8 construct: gene CSNK2A2

TYK2 = TYK2 (Homo sapiens, UniProt P29597)
EPHB4 = EPHB4 (Homo sapiens, UniProt P54760)
RSK4 = molecular target: T9, RSK4 (Homo sapiens, UniProt Q9UK32)
T9 construct: gene RPS6KA6

Haspin = Haspin (Homo sapiens, UniProt Q8TF76)
LCK = LCK (Homo sapiens, UniProt P06239)
DAPK3 = DAPK3 (Homo sapiens, UniProt O43293)
TIE2 = molecular target: T10, TIE2 (Homo sapiens, UniProt Q02763)
T10 construct: gene TEK

JNK3 = molecular target: T11, JNK3 (Homo sapiens, UniProt P53779)
T11 construct: gene MAPK10

MAPKAPK3 = MAPKAPK3 (Homo sapiens, UniProt Q16644)
LYN B = LYN B (Homo sapiens, UniProt P07948)
MSSK1 = molecular target: T12, MSSK1 (Homo sapiens, UniProt Q9UPE1)
T12 construct: gene SRPK3

CLK1 = CLK1 (Homo sapiens, UniProt P49759)
AKT3 = AKT3 (Homo sapiens, UniProt Q9Y243)
SRPK2 = SRPK2 (Homo sapiens, UniProt P78362)
STK16 = STK16 (Homo sapiens, UniProt O75716)

Question: For COc1cc(-c2nn(CCN3CCC(N(C)C)CC3)c3ncnc(N)c23)ccc1NC(=O)OC(C)(C)C [eCF506], which remaining activity at 1 µM (MEKK2) is on record?
Answer: The remaining activity at 1 µM was 99.3%.

Question: And the remaining activity at 1 µM (FGFR1)?
Answer: The remaining activity at 1 µM was 78%.

Question: What about the remaining activity at 1 µM (CK1g2) of the same compound?
Answer: The remaining activity at 1 µM was 90.9%.

Question: What about the remaining activity at 1 µM (TNK1) of the same compound?
Answer: Its remaining activity at 1 µM is 103%.

Question: What about the remaining activity at 1 µM (PAK3) of the same compound?
Answer: The remaining activity at 1 µM was 87.3%.

Question: What about the remaining activity at 1 µM (FES) of the same compound?
Answer: Its remaining activity at 1 µM is 109%.

Question: What about the remaining activity at 1 µM (PDGFRa) of the same compound?
Answer: Its remaining activity at 1 µM is 115%.

Question: What about the remaining activity at 1 µM (IKKe) of the same compound?
Answer: Its remaining activity at 1 µM is 93.8%.

Question: What about the remaining activity at 1 µM (NEK2) of the same compound?
Answer: The remaining activity at 1 µM was 97.7%.

Question: What about the remaining activity at 1 µM (AKT1) of the same compound?
Answer: Its remaining activity at 1 µM is 106%.

Question: What about the remaining activity at 1 µM (TBK1) of the same compound?
Answer: The remaining activity at 1 µM was 99.1%.

Question: And the remaining activity at 1 µM (MST4)?
Answer: Its remaining activity at 1 µM is 98.7%.

Question: And the remaining activity at 1 µM (IR)?
Answer: The remaining activity at 1 µM was 112%.

Question: And the remaining activity at 1 µM (IRAK1)?
Answer: Its remaining activity at 1 µM is 91.8%.

Question: What about the remaining activity at 1 µM (RIPK3) of the same compound?
Answer: Its remaining activity at 1 µM is 12.1%.

Question: And the remaining activity at 1 µM (MEK2)?
Answer: The remaining activity at 1 µM was 78.8%.

Question: What about the remaining activity at 1 µM (TRKA) of the same compound?
Answer: Its remaining activity at 1 µM is 100%.

Question: And the remaining activity at 1 µM (ALK)?
Answer: The remaining activity at 1 µM was 102%.

Question: What about the remaining activity at 1 µM (NEK4) of the same compound?
Answer: Its remaining activity at 1 µM is 103%.

Question: What about the remaining activity at 1 µM (FLT4) of the same compound?
Answer: Its remaining activity at 1 µM is 128%.

Question: And the remaining activity at 1 µM (CK2a2)?
Answer: Its remaining activity at 1 µM is 176%.

Question: And the remaining activity at 1 µM (TYK2)?
Answer: Its remaining activity at 1 µM is 89.6%.

Question: What about the remaining activity at 1 µM (EPHB4) of the same compound?
Answer: Its remaining activity at 1 µM is 68.5%.

Question: What about the remaining activity at 1 µM (RSK4) of the same compound?
Answer: The remaining activity at 1 µM was 83.3%.

Question: What about the remaining activity at 1 µM (Haspin) of the same compound?
Answer: Its remaining activity at 1 µM is 105%.

Question: And the remaining activity at 1 µM (LCK)?
Answer: The remaining activity at 1 µM was 1.4%.

Question: And the remaining activity at 1 µM (DAPK3)?
Answer: Its remaining activity at 1 µM is 93%.

Question: What about the remaining activity at 1 µM (TIE2) of the same compound?
Answer: Its remaining activity at 1 µM is 104%.

Question: What about the remaining activity at 1 µM (JNK3) of the same compound?
Answer: The remaining activity at 1 µM was 95.1%.

Question: What about the remaining activity at 1 µM (MAPKAPK3) of the same compound?
Answer: The remaining activity at 1 µM was 97.7%.

Question: What about the remaining activity at 1 µM (LYN B) of the same compound?
Answer: The remaining activity at 1 µM was 2%.

Question: And the remaining activity at 1 µM (MSSK1)?
Answer: The remaining activity at 1 µM was 94.9%.

Question: And the remaining activity at 1 µM (CLK1)?
Answer: Its remaining activity at 1 µM is 100%.

Question: What about the remaining activity at 1 µM (AKT3) of the same compound?
Answer: Its remaining activity at 1 µM is 104%.

Question: What about the remaining activity at 1 µM (SRPK2) of the same compound?
Answer: The remaining activity at 1 µM was 100%.

Question: What about the remaining activity at 1 µM (STK16) of the same compound?
Answer: The remaining activity at 1 µM was 95.7%.
